# In PubChem BioAssay AID686978 (National Center for Advancing Translational Sciences (NCATS), 2013):
# The list shows a part of the results, in another mix than the full data. Inconclusive results are not listed. Entries that show only a call come without a potency. Calls of active or inactive are those of the source. Calls follow the shape of the dose curve; as a rule, active = well fitted inhibition curve with a large enough effect; inconclusive = small, poorly fitted or top-dose-only effect; inactive = flat fitted curve, though single readings scatter.
# Experiment: qHTS for Inhibitors of human tyrosyl-DNA phosphodiesterase 1 (TDP1): qHTS in cells in absence of CPT; also: nearly all actives have a fitted effect of over 55% in size
# Conditions: DT40 Tdp1-/- hTDP1 cells, no CPT, ATP luminescence, 48 h; series mostly up to 46.2 µM
# Potency is read from the fitted curve at half-maximal effect.
row,Structure (SMILES),Potency
1,C(Cc1nn[nH]n1)Cc1nn[nH]n1,inactive
2,Nc1ccc([As](=O)(O)c2ccc([N+](=O)[O-])cc2)cc1,inactive
3,O=C(OC1CN2CCC1CC2)c1cccc(Cl)c1 (centres undefined),inactive
4,O=[N+]([O-])c1ccc(O)c(/C=N/Nc2ccc([N+](=O)[O-])cc2[N+](=O)[O-])c1,active: 2.59 µM
5,O=[N+]([O-])c1ncn(CCn2cnc([N+](=O)[O-])n2)n1,inactive
6,CC(=O)NC(SC(=S)N(C)C)C(Cl)(Cl)Cl (centres undefined),active: 0.82 µM
7,O=[As](O)(c1ccccc1)c1ccc(O)cc1,inactive
8,C[C@H]1OP(=O)(Oc2ccccc2)[C@H](O)[C@H](O)[C@H]1N=[N+]=[N-] (some centres undefined),inactive
9,O=P(Nc1nc2ccccc2s1)(c1ccccc1)c1ccccc1,inactive
10,CN(C(=O)Cc1ccccc1)[C@H]1CC[C@@]2(CCCO2)C[C@@H]1N1CCCC1,inactive
11,Nc1ccc(CCCCOc2ccccc2)cc1,inactive
12,O=P(Nc1ccccn1)(c1ccc(Br)cc1)c1ccc(Br)cc1,active: 20.6 µM
13,CN(C)C1(CNC(=O)c2ccc(Cl)c(S(N)(=O)=O)c2)CCCCC1,inactive
14,COc1cccc([N+](=O)[O-])c1[N+](=O)[O-],active: 11.2 µM
15,c1nnnn1CCn1cnnn1,inactive
16,CC(C)C(=O)NC(Sc1ccccc1)C(Cl)(Cl)Cl (centres undefined),inactive
17,O=P(Nc1nccs1)(c1ccccc1)c1ccccc1,inactive
18,CC(=O)Nc1ccc(Oc2c([N+](=O)[O-])cc([N+](=O)[O-])cc2[N+](=O)[O-])cc1,active: 11.6 µM
19,CC(=O)Nc1ccc([As](=O)(O)O)c(O)c1,inactive
20,COC(=O)C1(C)COP(=O)(NCc2ccccc2)OC1 (centres undefined),inactive
21,CC(=O)c1ccc(N2CC2c2ccncc2)cc1 (centres undefined),inactive
22,N#C/C(=C\c1ccc(N(CCBr)CCBr)cc1)C(N)=O,active: 1.16 µM
23,C[C@H]1OP(=O)(Oc2ccccc2)C[C@@H]2O[C@@H]21 (some centres undefined),inactive
24,C[C@@H]1C=CCP(=O)(Oc2ccccc2)O1 (some centres undefined),inactive
25,CCc1cc(O)c([N+](=O)[O-])c(C)c1[N+](=O)[O-],inactive

row,Structure (SMILES),Potency
1,CC(C)(C)C(=O)NC(Sc1ccccc1)C(Cl)(Cl)Cl (centres undefined),inactive
2,CCOc1ccc(C2=NCC(CBr)S2)cc1 (centres undefined),inactive
3,O=P1(Nc2nc3ccc(Cl)cc3s2)COc2ccccc2O1 (centres undefined),inactive
4,O=c1c2cc([N+](=O)[O-])ccc2[nH]c2c([N+](=O)[O-])cc([N+](=O)[O-])cc12,active: 0.517 µM
5,CN(C)C(=O)Oc1noc2ccccc12,inactive
6,CC(NC(=O)COC(=O)C(O)(c1ccccc1)c1ccccc1)c1ccccc1 (centres undefined),inactive
7,Cc1ccccc1OP(=O)(Nc1ccccn1)Oc1ccccc1C,active: 20.6 µM
8,COC(=O)c1cc2c(s1)N=C(c1ccccc1)N(C)P2(=O)N1CCOCC1 (centres undefined),inactive
9,CCC(=O)N1C2C3N(C(=O)CC)C1C1N(C(=O)CC)C(C(N1C(=O)CC)N3C(=O)CC)N2C(=O)CC,inactive
10,O=C(OC1CN2CCC1CC2)c1ccccc1 (centres undefined),inactive
11,O=P1(N(CCCl)CCCl)OCCC2CCCCN21 (centres undefined),inactive
12,COC1C(OC(=O)/C=C/C=C/C=C/C=C/C(=O)O)CCC2(CO2)C1C1(C)OC1CC=C(C)C (centres undefined) (tested in a mixture with another compound),active: 0.0366 µM
13,CCNC(=S)/N=C(\N)N[N+](=O)[O-],inactive
14,O=C(NC1CCS(=O)(=O)C1)NP(=S)(Oc1ccccc1)Oc1ccccc1 (centres undefined),inactive
15,O=[N+]([O-])c1cc([N+](=O)[O-])c2nc[nH]c2c1,active: 0.112 µM
16,Cc1ccc(NP(=O)(Oc2cccc(C)c2)Oc2cccc(C)c2)nc1,inactive
17,c1ccc(-c2nn[nH]n2)c(-c2nn[nH]n2)c1,inactive
18,CCN(N=Nc1nonc1N)c1nonc1N,inactive
19,Nc1cccc2ccc([As](=O)(O)O)cc12,inactive
20,Cc1ccc(NP(=O)(Oc2ccccc2F)Oc2ccccc2F)nc1,inactive
21,Cc1cc(SC(NC(=O)c2ccc(F)cc2)C(Cl)(Cl)Cl)ncn1 (centres undefined),active: 13 µM
22,CCOP(=O)(Nc1ccccc1)OCC,inactive
23,CCCC1OP(N)(=O)OCC1CC (centres undefined),inactive
24,CC(=O)Nc1ccc([As](=O)(O)O)cc1,inactive
25,O=C(O)c1ccccc1[As](=O)(O)O,inactive

row,Structure (SMILES),Potency
1,CN(C)P(=O)(N(C)C)n1c(Nc2ccccc2)nnc1-c1ccccc1,active: 16.4 µM
2,O=[N+]([O-])C1C(O)C(O)C([N+](=O)[O-])C(O)C1O (centres undefined),inactive
3,Nc1cc(N)c2nonc2c1[N+](=O)[O-],inactive
4,CC(C)CC(=O)NC(Sc1ccc(Cl)cc1)C(Cl)(Cl)Cl (centres undefined),inactive
5,Oc1ccccc1CNc1ccccn1,inactive
6,Cc1ccc(OP(=O)(Nc2nccs2)Oc2ccc(C)cc2)cc1,inactive
7,CN1CCCC(OC(=O)C(c2ccccc2)c2ccccc2)C1 (centres undefined),inactive
8,CCNC(C)Cc1ccc2c(c1)OCO2 (centres undefined),inactive
9,NC(=O)c1cc([N+](=O)[O-])cc([N+](=O)[O-])c1N,inactive
10,Cc1ccc(N/C(=N/P(=O)(N2CCOCC2)N2CCOCC2)N2CCOCC2)cc1,inactive
11,CN(C)C(=O)OCCc1n(C)cc[n+]1C,inactive
12,CC(C)c1nc(Nc2ccccc2)n(P(=O)(N(C)C)N(C)C)n1,active: 23.1 µM
13,COc1cc([N+](=O)[O-])c([N+](=O)[O-])cc1OC,active: 12.6 µM
14,CC(C)=N/N=C(\N)N[N+](=O)[O-],inactive
15,CC(=O)C1=CCCC2CCC1N2 (centres undefined),inactive
16,c1cc(-c2nn[nH]n2)ccc1-c1nn[nH]n1,inactive
17,Nc1ccc([As](=O)(O)c2ccc(N)cc2)cc1,inactive
18,CCN(/C(=N/P(=O)(N1CCOCC1)N1CCOCC1)N1CCOCC1)c1ccc(OC)cc1,inactive
19,O=[N+]([O-])c1cccc2n[nH]nc12,inactive
20,CC(=O)N1C2C3N(C(C)=O)C1C1N(C(C)=O)C(C(N1C(C)=O)N3C(C)=O)N2C(C)=O,inactive
21,Cc1ccc(NP(=O)(Oc2ccccc2)Oc2ccccc2)nc1,inactive
22,COC(=O)C1(C)COP(=O)(Nc2ccccc2)OC1 (centres undefined),inactive
23,O=C(O)CNc1ccc([As](=O)(O)O)cc1,inactive
24,CC(C)(C)C(=O)NC(Sc1ccncn1)C(Cl)(Cl)Cl (centres undefined),inactive
